In PubChem BioAssay AID602363 (Broad Institute, 2012):
The entries are a selection whose mix differs from that of the whole data set. Activity calls are given as the source filed them.

Experiment: UUG initiation codon usage in yeast – whole organism, S. cerevisiae, single point, plate reader, primary screen (AID 602363);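 also: firefly luciferase made from a UUG start codon reports start codon fidelity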
Details: S. cerevisiae UUG-firefly luciferase reporter, luminescence/redox ratio; at 18.7 µM; stronger effect = higher value
With `O=C1CCN(Cc2ccccc2)CC1` the activity score was inactive: 8.74%. With `CC(C)(C)n1nnnc1C(c1ccccc1)N1CCC(n2c(=O)[nH]c3ccccc32)CC1` (stereo unspecified) the activity score was inactive: 6.59%. With `COc1ccc(NC2CCN(CCc3ccccc3)CC2)c(OC)c1` the activity score was inactive: -12.4%. With `CCOC(=O)N1CCC(Nc2ccc(F)cc2)CC1` the activity score was inactive: -11.4%. In the case of `O=C(NCC1(N2CCCCC2)CCCCC1)c1ccc(F)cc1`, the activity score is reported as inactive: 1.01%. With `O=P1(N(CCCl)CCCl)SCCCS1` the activity score was inactive: -8.16%. For `CCCCn1nnnc1C(c1cc2ccccc2o1)N1CCC(n2c(=O)[nH]c3ccccc32)CC1` (stereo unspecified), the activity score was inactive: -8.99%. For `CCCCOc1ccc(C(=O)NCC2(N3CCOCC3)CCCCC2)cc1`, the activity score was inactive: -9.25%. For `O=c1[nH]c2ccccc2n1C1CCN(C(c2ccccc2)c2nnnn2C2CCCCC2)CC1` (stereo unspecified), the activity score was inactive: 7.79%. With `O=c1[nH]c2ccccc2n1C1CCN(C(c2cccc3ccccc23)c2nnnn2C2CCCC2)CC1` (stereo unspecified) the activity score was inactive: -18.7%. With `COc1cc(C(=O)NCC2(N(C)C)CCCCC2)ccc1OC(F)F` the activity score was inactive: -6.96%. With `CCOC(=O)N1CCC(Nc2cccc(C)c2)CC1` the activity score was inactive: -9.16%. For `CCCCn1nnnc1C(c1cccs1)N1CCC(n2c(=O)[nH]c3ccccc32)CC1` (stereo unspecified), the activity score was inactive: -12.9%. For `O=C(NCC1(N2CCCCC2)CCCCC1)c1cccs1`, the activity score was inactive: 6.81%. With `CCCCn1nnnc1C(CC)N1CCC(n2c(=O)[nH]c3ccccc32)CC1` (stereo unspecified) the activity score was inactive: -7.95%. For `O=C(NCC1(N2CCCCC2)CCCCC1)c1ccc(=O)[nH]c1`, the activity score was inactive: -8.38%. With `CCC(c1nnnn1C1CCCC1)N1CCC(n2c(=O)[nH]c3ccccc32)CC1` (stereo unspecified) the activity score was inactive: 7.5%. In the case of `CC(C)(C)OC(=O)N1CCC(N(C(=O)c2ccccc2)c2ccc(F)cc2)CC1`, the activity score is reported as inactive: 5.88%. With `COc1ccc(C(=O)NCC2(N3CCCCC3)CCCCC2)cc1` the activity score was inactive: -17.8%. In the case of `Cc1cccc(NC2(C#N)CCN(Cc3ccccc3)CC2)c1`, the activity score is reported as inactive: -8.47%. In the case of `CSc1ccccc1C(=O)NCC1(N2CCCCC2)CCCCC1`, the activity score is reported as inactive: -22.6%. In the case of `Cc1cc(C)cc(N(C(=O)c2ccccc2)C2CCN(C(=O)OC(C)(C)C)CC2)c1`, the activity score is reported as inactive: 5.12%. For `O=c1[nH]c2ccccc2n1C1CCN(C(c2ccccc2OC(F)(F)F)c2nnnn2C2CCCCC2)CC1` (stereo unspecified), the activity score was inactive: -7.11%. For `O=C(NCC1(N2CCCCC2)CCCCC1)c1ccc(Cl)nc1`, the activity score was inactive: -17.9%. For `CCCCn1nnnc1C(c1ccc(OC)cc1)N1CCC(n2c(=O)[nH]c3ccccc32)CC1` (stereo unspecified), the activity score was inactive: 1.13%. For `CCOC(=O)N1CCC(Nc2ccc(OC)cc2)CC1`, the activity score was inactive: 4.09%. With `O=C(OC1CN2CCC1CC2)C1c2ccccc2Oc2ccccc21` (stereo unspecified) the activity score was inactive: -16.1%. For `O=c1[nH]c2ccccc2n1C1CCN(C(c2cc3ccccc3o2)c2nnnn2C2CCCCC2)CC1` (stereo unspecified), the activity score was inactive: -13.3%. With `O=C(NCC1(N2CCCCC2)CCCCC1)c1ccc(Cl)s1` the activity score was inactive: 5.59%. In the case of `CN(C)c1cccc(C(=O)NCC2(N3CCCCC3)CCCCC2)c1`, the activity score is reported as inactive: -14.8%. In the case of `CCCCn1nnnc1C(c1ccccc1OC(F)(F)F)N1CCC(n2c(=O)[nH]c3ccccc32)CC1` (stereo unspecified), the activity score is reported as inactive: -9.99%. With `CCCCn1nnnc1C(c1ccnc2ccccc12)N1CCC(n2c(=O)[nH]c3ccccc32)CC1` (stereo unspecified) the activity score was inactive: 20.5%. For `O=C(NCC1(N2CCOCC2)CCCCC1)c1cc(F)c(F)cc1Cl`, the activity score was inactive: 9.54%. With `CCC(c1nnnn1C(C)(C)C)N1CCC(n2c(=O)[nH]c3ccccc32)CC1` (stereo unspecified) the activity score was inactive: -0.153%. In the case of `COc1cc(OC)c(C(=O)NCC2(N(C)C)CCCCC2)cc1OC`, the activity score is reported as inactive: -18%. With `O=C(NCC1(N2CCCCC2)CCCCC1)c1cncc(Br)c1` the activity score was inactive: -10.7%. With `CN1CCC(Nc2cccc(F)c2)CC1` the activity score was inactive: -11.1%. With `CCCOc1ccc(C(=O)NCC2(N(C)C)CCCCC2)cc1OC` the activity score was inactive: -13.5%. With `Cc1ccc(C(=O)NCC2(N(C)C)CCCCC2)o1` the activity score was inactive: 12.8%. In the case of `COc1ccc(C(c2nnnn2C2CCCC2)N2CCC(n3c(=O)[nH]c4ccccc43)CC2)cc1` (stereo unspecified), the activity score is reported as inactive: 24.7%. With `O=C(NCC1(N2CCCCC2)CCCCC1)c1ccc(OC(F)F)cc1` the activity score was inactive: -12.2%. In the case of `CC(C)(C)n1nnnc1C(c1ccccc1OC(F)(F)F)N1CCC(n2c(=O)[nH]c3ccccc32)CC1` (stereo unspecified), the activity score is reported as inactive: -11.1%. With `CSc1ccc(C(=O)NCC2(N3CCOCC3)CCCCC2)cc1` the activity score was inactive: -25.3%. In the case of `N#CC1(Nc2ccccc2)CCN(CCc2ccccc2)CC1`, the activity score is reported as inactive: -4.03%. In the case of `O=c1[nH]c2ccccc2n1C1CCN(C(c2ccccc2OC(F)(F)F)c2nnnn2C2CCCC2)CC1` (stereo unspecified), the activity score is reported as inactive: -1.25%. In the case of `CCN1CCC(Nc2ccc(Cl)cc2)CC1`, the activity score is reported as inactive: 6.96%. In the case of `O=C(NCC1(N2CCCCC2)CCCCC1)c1cccc(C(F)(F)F)c1`, the activity score is reported as inactive: -1.65%. For `CCCCn1nnnc1C(c1cccc2ccccc12)N1CCC(n2c(=O)[nH]c3ccccc32)CC1` (stereo unspecified), the activity score was inactive: -12.3%. For `CN1CCN(CCOC(=O)C(O)(c2ccccc2)c2ccccc2)CC1`, the activity score was inactive: -4.27%. With `COc1cc(C(=O)NCC2(N3CCCCC3)CCCCC2)ccc1OC(F)F` the activity score was inactive: -27.5%. For `O=C(NCC1(N2CCOCC2)CCCCC1)c1cc(=O)[nH]c2ccccc12`, the activity score was inactive: 13.2%. For `CC(C)(C)OC(=O)N1CCC(N(C(=O)c2ccccc2)c2ccc(Cl)cc2)CC1`, the activity score was inactive: -17.8%. With `N#Cc1ccc(C(=O)NCC2(N3CCCCC3)CCCCC2)cc1` the activity score was inactive: -12.6%. In the case of `CCCN1CCC(Nc2cc(OC)cc(OC)c2)CC1`, the activity score is reported as inactive: -1.89%. For `O=c1[nH]c2ccccc2n1C1CCN(C(c2ccccc2)c2nnnn2C2CCCC2)CC1` (stereo unspecified), the activity score was inactive: -12.6%. With `c1ccc(CN2CCC(Nc3ccccc3)CC2)cc1` the activity score was inactive: -22.7%. With `CN(C)C1(CNC(=O)c2cccc(C#N)c2)CCCCC1` the activity score was inactive: -20.5%. In the case of `CC(C)(C)n1nnnc1C(c1cccc2ccccc12)N1CCC(n2c(=O)[nH]c3ccccc32)CC1` (stereo unspecified), the activity score is reported as inactive: -6.01%. With `O=C(NCC1(N2CCOCC2)CCCCC1)c1cc(Br)ccc1Cl` the activity score was inactive: -13.7%. For `COc1cc(C(=O)NCC2(N3CCOCC3)CCCCC2)cc(OC)c1C`, the activity score was inactive: 13%. In the case of `CCCCn1nnnc1C(c1ccccc1)N1CCC(n2c(=O)[nH]c3ccccc32)CC1` (stereo unspecified), the activity score is reported as inactive: 24.2%. In the case of `O=c1[nH]c2ccccc2n1C1CCN(C(c2ccnc3ccccc23)c2nnnn2C2CCCC2)CC1` (stereo unspecified), the activity score is reported as inactive: -15.2%. With `O=c1[nH]c2ccccc2n1C1CCN(C(c2cccs2)c2nnnn2C2CCCCC2)CC1` (stereo unspecified) the activity score was inactive: -17.8%. With `N/C(=N\O)c1c(N)no[n+]1[O-]` the activity score was inactive: -14.1%. With `COc1cccc(C(c2nnnn2C(C)(C)C)N2CCC(n3c(=O)[nH]c4ccccc43)CC2)c1OC` (stereo unspecified) the activity score was inactive: -3%. With `CCOC(=O)N1CCC(Nc2ccc(C)cc2)CC1` the activity score was inactive: -13%. For `CCCCn1nnnc1C(c1cccc(OC)c1OC)N1CCC(n2c(=O)[nH]c3ccccc32)CC1` (stereo unspecified), the activity score was inactive: 25.2%. With `O=c1[nH]c2ccccc2n1C1CCN(C(c2cccs2)c2nnnn2C2CCCC2)CC1` (stereo unspecified) the activity score was inactive: -7.85%. With `CN1CCC(Nc2ccc(F)c(Cl)c2)CC1` the activity score was inactive: 2.76%. In the case of `CCOc1ncccc1C(=O)NCC1(N2CCOCC2)CCCCC1`, the activity score is reported as inactive: -8.39%. With `CCCOc1ccc(C(=O)NCC2(N(C)C)CCCCC2)cc1` the activity score was inactive: -19.1%. For `O=c1[nH]c2ccccc2n1C1CCN(C(c2cc3ccccc3o2)c2nnnn2C2CCCC2)CC1` (stereo unspecified), the activity score was inactive: -8.8%. In the case of `O=C(O)C1(Nc2ccccc2)CCN(Cc2ccccc2)CC1`, the activity score is reported as inactive: -13.2%. With `CCC(CO)(C(=O)OC1CN2CCC1CC2)c1ccccc1` (stereo unspecified) the activity score was inactive: 2.49%. For `COc1cccc(C(c2nnnn2C2CCCC2)N2CCC(n3c(=O)[nH]c4ccccc43)CC2)c1OC` (stereo unspecified), the activity score was inactive: -0.859%. With `COc1cc(OC)cc(C(=O)NCC2(N3CCOCC3)CCCCC2)c1` the activity score was inactive: 5.92%. For `COc1cccc(C(=O)N(c2cc(C)cc(C)c2)C2CCN(C(=O)OC(C)(C)C)CC2)c1`, the activity score was inactive: 7.11%. For `CN1CCC(Nc2ccc(Cl)cc2)CC1`, the activity score was inactive: -19.5%. In the case of `O=c1[nH]c2ccccc2n1C1CCN(C(c2ccnc3ccccc23)c2nnnn2C2CCCCC2)CC1` (stereo unspecified), the activity score is reported as inactive: -13.9%. In the case of `COc1cc(OC)cc(C(=O)NCC2(N3CCCCC3)CCCCC2)c1`, the activity score is reported as inactive: -9.69%. For `CCC(c1nnnn1C1CCCCC1)N1CCC(n2c(=O)[nH]c3ccccc32)CC1` (stereo unspecified), the activity score was inactive: 2%. For `CC(=O)N(c1ccccc1)C1CCNCC1`, the activity score was inactive: -28.1%. With `COc1cccc(C(c2nnnn2C2CCCCC2)N2CCC(n3c(=O)[nH]c4ccccc43)CC2)c1OC` (stereo unspecified) the activity score was inactive: -10.6%. For `Cc1ccc(NC2(C#N)CCN(Cc3ccccc3)CC2)cc1`, the activity score was inactive: -9.61%. With `Fc1ccccc1NC1CCN(Cc2ccccc2)CC1` the activity score was inactive: 0.627%. In the case of `Cc1ccc(C(=O)NCC2(N3CCCCC3)CCCCC2)o1`, the activity score is reported as inactive: 0.514%. For `CC(C)(C)n1nnnc1C(c1ccnc2ccccc12)N1CCC(n2c(=O)[nH]c3ccccc32)CC1` (stereo unspecified), the activity score was inactive: 7.29%. With `COc1ccc(C(c2nnnn2C2CCCCC2)N2CCC(n3c(=O)[nH]c4ccccc43)CC2)cc1` (stereo unspecified) the activity score was inactive: 25.6%. For `Cc1ccccc1NC1(C#N)CCN(Cc2ccccc2)CC1`, the activity score was inactive: -8.16%. For `Cn1c(=O)[nH]cc(N(CCCl)CCCl)c1=O`, the activity score was inactive: -13%. With `O=C(NCC1(N2CCCCC2)CCCCC1)c1ccco1` the activity score was inactive: -10.5%.
